Binding of CDR-mutated scFvs to a peptide of the spike HR2 region

From the AlphaSeq antibody data of Li et al. 2023 (doi:10.1038/s41467-023-39022-2), copy in the FLAb collection.

Target: peptide PDVDLGDISGINAS, taken from heptad repeat 2 (HR2) of SARS-CoV-2 spike.

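These sequences belong to a second round, designed from the earlier measurements on random variants of the parent. Their group label is 14L_Ctrl (Ctrl: baseline library sampled from a position-specific scoring matrix, with some repeated check sequences). AlphaSeq pools MATa yeast showing the antibodies with MATalpha yeast showing the peptide. Binding brings cells together so that they mate, and sequencing counts the barcode pairs among the diploids. A regression on co-assayed BCL2-family reference pairs converts the normalised counts of each replicate to an apparent Kd. Each pool was mated in six replicate cultures.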

Ab-14 is the parent antibody, in scFv form: VH, then three GGGGS repeats, then VL. The heavy chain is unchanged in all variants.
VH: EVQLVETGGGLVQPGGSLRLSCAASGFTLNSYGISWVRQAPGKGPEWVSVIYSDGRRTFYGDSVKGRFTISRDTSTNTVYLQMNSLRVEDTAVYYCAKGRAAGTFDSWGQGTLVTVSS
VL: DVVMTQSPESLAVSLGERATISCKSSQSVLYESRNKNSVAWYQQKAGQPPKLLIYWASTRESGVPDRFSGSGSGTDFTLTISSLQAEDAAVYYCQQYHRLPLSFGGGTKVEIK

The parent's light chain CDRs are KSSQSVLYESRNKNSVA, WASTRES, QQYHRLPLS; each variant's own CDRs replace them letter for letter. Values are log10 of the apparent Kd in nM; lower means stronger binding. Averages over replicates are reported, and they cover detected replicates only. An entry "ND" has no value in the source: the pair was not observed among the diploids in that replicate. This suggests poor binding but is not conclusive. Of ten entries with the parent sequence, four were seen in most replicates (averages 0.34 to 2.37), three in one and three in none, so single entries are noisy. Three control strains display no target. For all light chain designs, 4% of the pairings with them gave a signal, with a median of 2.64 and one signal in twenty below 1.59, so weak values seen in few replicates may be background. For each scFv, signals with the empty controls are counted beside the result, with their mean in brackets. Values of this round are not directly comparable with the first-round values of the same sequences. The authors' rule: three or more of the six replicates give a measured affinity, fewer mean a poor binder.

{"CDR-L1": "KSSTSVLYESRNKNSVA", "CDR-L2": "SASTRES", "CDR-L3": "QQYSRLPLS", "replicates, log10 nM": "0.24 0.45 -0.07 -0.21 0.42 0.51", "mean log10 Kd (nM)": "0.22", "control signals": "1/18 (3.00)"}
{"CDR-L1": "KSSQSVLGESRNKASVA", "CDR-L2": "EASTRES", "CDR-L3": "QQYHRLPLS", "replicates, log10 nM": "0.91 ND 0.39 ND 0.38 1.19", "mean log10 Kd (nM)": "0.72", "control signals": "0/18"}
{"CDR-L1": "KTSQAVLYESRNKNSVA", "CDR-L2": "WASTRES", "CDR-L3": "QQYHRLPLD", "replicates, log10 nM": "2.46 ND 2.43 ND ND ND", "mean log10 Kd (nM)": "2.45", "control signals": "0/18"}
{"CDR-L1": "KSSQSVLYEGRNVNSVA", "CDR-L2": "WDSTRES", "CDR-L3": "QQYHRIPLS", "replicates, log10 nM": "ND ND ND ND ND ND", "mean log10 Kd (nM)": "ND", "control signals": "0/18"}
{"CDR-L1": "KASQSMLYETRNKNSVA", "CDR-L2": "NASTRES", "CDR-L3": "QQYHRLPLS", "replicates, log10 nM": "0.43 0.25 0.25 0.19 0.11 0.46", "mean log10 Kd (nM)": "0.28", "control signals": "2/18 (2.54)"}
{"CDR-L1": "KSSQSVLYESRNFNSVA", "CDR-L2": "WASTREA", "CDR-L3": "QQYHRLPLS", "replicates, log10 nM": "2.18 0.89 1.17 3.02 1.87 1.65", "mean log10 Kd (nM)": "1.80", "control signals": "1/18 (2.02)"}
{"CDR-L1": "KSSQSVLYESNNKNNVA", "CDR-L2": "WATTRES", "CDR-L3": "QQYHRLPLS", "replicates, log10 nM": "1.40 1.13 1.35 1.06 0.92 1.54", "mean log10 Kd (nM)": "1.23", "control signals": "1/18 (2.33)"}
{"CDR-L1": "KSGQSVLYESRNTNSVA", "CDR-L2": "WAVERES", "CDR-L3": "QTYHRLPLS", "replicates, log10 nM": "ND 0.66 1.95 0.38 1.00 1.08", "mean log10 Kd (nM)": "1.01", "control signals": "0/18"}
{"CDR-L1": "SSSQSVLYESRNHNSVA", "CDR-L2": "WASTRES", "CDR-L3": "QQYHRLPLD", "replicates, log10 nM": "ND ND ND ND ND ND", "mean log10 Kd (nM)": "ND", "control signals": "0/18"}
{"CDR-L1": "KSSQHVLYESRNKNSVA", "CDR-L2": "WASTRES", "CDR-L3": "QQYVRLPLS", "replicates, log10 nM": "ND ND ND ND ND 2.23", "mean log10 Kd (nM)": "2.23", "control signals": "0/18"}
{"CDR-L1": "KVSQSVLFESRNKNNVA", "CDR-L2": "WASTRES", "CDR-L3": "TQYHRLPLS", "replicates, log10 nM": "ND ND ND ND ND ND", "mean log10 Kd (nM)": "ND", "control signals": "0/18"}
{"CDR-L1": "KISQSVLTESRNKNSVA", "CDR-L2": "NASCRES", "CDR-L3": "QQYHRLPLS", "replicates, log10 nM": "0.05 -0.15 0.06 0.03 -0.06 0.06", "mean log10 Kd (nM)": "0.00", "control signals": "0/18"}
{"CDR-L1": "KSSASVLYESGNGNSVA", "CDR-L2": "SASTRES", "CDR-L3": "QQYHRLPLS", "replicates, log10 nM": "0.30 0.50 0.39 -0.22 0.03 0.63", "mean log10 Kd (nM)": "0.27", "control signals": "4/18 (2.56)"}
{"CDR-L1": "KSSQSVLYESRNKNAIA", "CDR-L2": "WASTRSS", "CDR-L3": "QQYHRLPLS", "replicates, log10 nM": "ND ND ND ND ND ND", "mean log10 Kd (nM)": "ND", "control signals": "0/18"}
{"CDR-L1": "KSSQSILYESRNKNSVA", "CDR-L2": "WASTREP", "CDR-L3": "EQYHRLPLS", "replicates, log10 nM": "ND ND ND ND ND ND", "mean log10 Kd (nM)": "ND", "control signals": "0/18"}
{"CDR-L1": "KSSQSVDYESNNKNSVA", "CDR-L2": "WASTRES", "CDR-L3": "QQYHRLPLS", "replicates, log10 nM": "1.31 1.27 1.40 1.48 1.29 1.35", "mean log10 Kd (nM)": "1.35", "control signals": "2/18 (2.72)"}
{"CDR-L1": "LLSQSTLYESRNCGSVA", "CDR-L2": "WASTRES", "CDR-L3": "QQYHRLPLA", "replicates, log10 nM": "ND ND ND ND ND ND", "mean log10 Kd (nM)": "ND", "control signals": "1/18 (1.73)"}
{"CDR-L1": "KISQSVLYSSRNKNSLA", "CDR-L2": "EASTRES", "CDR-L3": "QQYHRLPLS", "replicates, log10 nM": "-0.33 -0.60 -0.33 -0.53 -0.50 -0.41", "mean log10 Kd (nM)": "-0.45", "control signals": "1/18 (2.98)"}
{"CDR-L1": "KSSQSVLYESRNPNSVA", "CDR-L2": "HASTRES", "CDR-L3": "QQYNRLPLS", "replicates, log10 nM": "-0.43 -0.67 -0.59 -0.84 -0.79 -0.45", "mean log10 Kd (nM)": "-0.63", "control signals": "0/18"}
{"CDR-L1": "KWSQSVLYESHNKNSVA", "CDR-L2": "HATTRES", "CDR-L3": "QQYHRLPLS", "replicates, log10 nM": "2.54 2.36 2.19 3.10 2.26 2.15", "mean log10 Kd (nM)": "2.43", "control signals": "1/18 (3.04)"}
{"CDR-L1": "KSSQSVLYESRNKNSVA", "CDR-L2": "WAMTRES", "CDR-L3": "QQYQRLPLS", "replicates, log10 nM": "ND ND ND ND ND ND", "mean log10 Kd (nM)": "ND", "control signals": "0/18"}
{"CDR-L1": "KSSQSVLYESRNKNSVA", "CDR-L2": "EASTRES", "CDR-L3": "QQYHCLPLS", "replicates, log10 nM": "ND ND ND ND ND ND", "mean log10 Kd (nM)": "ND", "control signals": "0/18"}
{"CDR-L1": "KCMQSVLYESRNKNSVA", "CDR-L2": "WASTRES", "CDR-L3": "QQDHRHPLS", "replicates, log10 nM": "ND ND ND ND ND ND", "mean log10 Kd (nM)": "ND", "control signals": "0/18"}
{"CDR-L1": "KYSNSVQYESRNANSVA", "CDR-L2": "WASTRES", "CDR-L3": "QQYHRLPLS", "replicates, log10 nM": "1.57 2.82 1.28 1.09 1.63 2.13", "mean log10 Kd (nM)": "1.76", "control signals": "0/18"}

The last 3 entries again:

{"CDR-L1": "KSSQSVLYESRNKNSVA", "CDR-L2": "EASTRES", "CDR-L3": "QQYHCLPLS", "replicates, log10 nM": "ND ND ND ND ND ND", "mean log10 Kd (nM)": "ND", "control signals": "0/18"}
{"CDR-L1": "KCMQSVLYESRNKNSVA", "CDR-L2": "WASTRES", "CDR-L3": "QQDHRHPLS", "replicates, log10 nM": "ND ND ND ND ND ND", "mean log10 Kd (nM)": "ND", "control signals": "0/18"}
{"CDR-L1": "KYSNSVQYESRNANSVA", "CDR-L2": "WASTRES", "CDR-L3": "QQYHRLPLS", "replicates, log10 nM": "1.57 2.82 1.28 1.09 1.63 2.13", "mean log10 Kd (nM)": "1.76", "control signals": "0/18"}